In series [1] the target is human GLP-1 receptor (hGLP-1R) (Homo sapiens, UniProt P43220). Kind of series: cAMP production (HTRF) in CHO cells expressing hGLP-1R. Format: cell-based. On the set-up: expressed in transfected cells. As to conditions: for % Relative Potency Ratio: % GLP-1R activity relative to GLP-1 / % GlucR activity relative to glucagon; for EC50: hGLP-1R EC50 (pM). The procedure:
(§1) Cells were re-suspended in assay buffer at a batch-dependent optimized concentration (typically hGLP-1R cells at 1×10^5 cells/mL, hGCGR cells at 2×10^5 cells/mL).
(§2) Cells were added to the assay plate using a multidrop dispenser and incubated at room temperature for 30 minutes before measuring the cAMP level using a cAMP dynamic 2 homogeneous time resolved Fluorescence (HTRF) kit (Cisbio Bioassays #62AM4PEJ) following the two-step protocol as per manufacturer's recommendations. In brief, anti-cAMP cryptate (donor fluorophore) and cAMP-d2 (acceptor fluorophore) were made up separately by diluting each 1 in 20 in conjugate and lysis buffer provided in the kit. Anti-CAMP cryptate was added to all wells of the assay plate, followed by cAMP-d2 added to all wells except non-specific binding (NSB) wells (to which conjugate and lysis buffer was added).
(§3) Data was transformed to % Delta F as described in the manufacturer's guidelines and analyzed by 4-parameter logistic fit to determine EC50 values.
On the technique in general: Cyclic AMP is a second messenger, typically raised through Gs and lowered through Gi signalling.

Amino acid sequences for entries named in this document (tags omitted). Residues count along the entry.
UniProt P43220, 24-463: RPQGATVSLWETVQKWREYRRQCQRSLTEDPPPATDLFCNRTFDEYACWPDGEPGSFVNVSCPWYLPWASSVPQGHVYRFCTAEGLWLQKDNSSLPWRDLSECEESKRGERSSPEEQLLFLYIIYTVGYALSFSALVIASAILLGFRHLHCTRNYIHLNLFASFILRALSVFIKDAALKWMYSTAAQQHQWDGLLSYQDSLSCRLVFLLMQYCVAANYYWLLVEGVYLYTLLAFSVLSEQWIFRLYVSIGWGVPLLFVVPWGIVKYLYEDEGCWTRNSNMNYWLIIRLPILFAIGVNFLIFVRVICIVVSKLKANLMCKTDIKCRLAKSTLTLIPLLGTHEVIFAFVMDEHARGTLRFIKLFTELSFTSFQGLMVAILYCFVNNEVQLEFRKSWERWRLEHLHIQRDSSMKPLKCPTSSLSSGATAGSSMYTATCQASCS
UniProt P47871, 26-477: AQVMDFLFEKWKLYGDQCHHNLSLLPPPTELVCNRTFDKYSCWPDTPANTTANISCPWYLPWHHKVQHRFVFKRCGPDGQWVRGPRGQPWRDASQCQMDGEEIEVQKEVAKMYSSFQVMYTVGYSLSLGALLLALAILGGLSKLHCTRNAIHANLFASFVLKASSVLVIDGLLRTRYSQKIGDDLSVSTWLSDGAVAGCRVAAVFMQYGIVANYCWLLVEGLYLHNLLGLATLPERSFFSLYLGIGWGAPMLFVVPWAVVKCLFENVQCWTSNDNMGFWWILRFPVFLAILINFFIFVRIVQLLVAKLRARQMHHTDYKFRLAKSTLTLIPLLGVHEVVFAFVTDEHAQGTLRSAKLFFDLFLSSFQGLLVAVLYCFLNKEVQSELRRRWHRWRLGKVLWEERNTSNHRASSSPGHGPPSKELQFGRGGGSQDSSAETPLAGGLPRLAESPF

In series [2] the target is human glucagon receptor (hGCGR) (Homo sapiens, UniProt P47871). Kind of series: cAMP production (HTRF) in CHO cells expressing hGCGR. As to conditions: hGluc-R EC50 (pM). Format: cell-based. Also on record: expressed in transfected cells. The procedure: as §1, §2, §3
Series [3] can be described thus: Pharmacokinetic profiling in non-human primate (i.v., s.c.). The settings on record: cynomolgus monkey, in vivo, iv, 10 nmol/kg. An excerpt: (§4) Selected test peptides (n=8) were profiled for pharmacokinetic (PK) properties in the mouse after single intravenous (i.v.) or subcutaneous (s.c.) dose. A subset (n=4) meeting the acceptance criteria was subsequently profiled in the dog (single i.v. dose) and non-human primate (single i.v. and s.c. dose). […] Low-binding plasticware containers were used during preparation and sample handling to avoid non-specific binding.
Non-human primate: PK was studied in non-naïve male cynomolgus monkeys. After dosing, PK samples were collected from the femoral vein. Blood of each sample was transferred into plastic micro centrifuge tubes containing EDTA-K2, inverted several times for proper mixing of contents and then placed on wet ice. […]
(§5) Samples analysis: Samples were analyzed by LC-MS/MS. Calibration standards were injected at the beginning and end of each batch and the determined concentration for each prepared standard was used to construct a calibration curve. Plasma and dose aliquot sample concentrations were determined from the plasma calibration curve.
Data analysis: Plasma concentration data was analyzed by non-compartmental analysis (NCA) using Phoenix Winnonlin v. […] Subcutaneous bioavailability was calculated as the ratio AUC(s.c.)0-inf/AUC(i.v.)0-inf. […]

Series [4] is described as follows: Pharmacokinetic profiling in dog (i.v.). As to conditions: in vivo, iv, 10 nmol/kg.
Source text: as §4
Blood of each sample was transferred into plastic micro centrifuge tubes containing EDTA-K2, inverted several times for proper mixing of contents and then placed on wet ice.
as §5
Data analysis: Plasma concentration data was analyzed by non-compartmental analysis (NCA) using Phoenix Winnonlin v. 8.3.3.33. Linear trapezoidal rule was used for increasing values and log trapezoidal rule was used for decreasing values, applying uniform weighting for lambda_z calculations. Subcutaneous bioavailability was calculated as the ratio AUC(s.c.)0-inf/AUC(i.v.)0-inf. Reported values (Table 18) represent the mean of the individual estimates.

Starred links: 1 amine or outer side, 2 acyl side, 3 side chain; linkers in the order of their positions; H or OH if unused. Non-standard residues stand in square brackets, D forms with d. Residues, ends and D or L forms follow the SMILES beside them. Groups on a side chain read outwards from the residue. *: point of attachment. C20 diacid = O=C(O)CCCCCCCCCCCCCCCCCCC(=O)*; γGlu = O=C(O)[C@H](CCC(=O)[*:2])N[*:1]; αMeF = C[C@](N)(Cc1ccccc1)C(=O)O; AEEA = NCCOCCOCC(=O)O; Aib = CC(C)(N)C(=O)O

In general, EC50 refers to the concentration that produces a half-maximal response. For the compound `CC[C@H](C)[C@H](NC(=O)C(C)(C)NC(=O)[C@H](CCC(N)=O)NC(=O)[C@@H](NC(=O)[C@H](Cc1ccccc1)NC(=O)[C@H](CC(=O)O)NC(=O)[C@H](CCCCNC(=O)COCCOCCNC(=O)COCCOCCNC(=O)CC[C@H](NC(=O)CC[C@H](NC(=O)CCCCCCCCCCCCCCCCCCC(=O)O)C(=O)O)C(=O)O)NC(=O)[C@H](C)NC(=O)[C@H](C)NC(=O)[C@H](CCCNC(=N)N)NC(=O)[C@H](CO)NC(=O)[C@H](CC(=O)O)NC(=O)[C@H](CC(C)C)NC(=O)[C@](C)(Cc1ccccc1)NC(=O)[C@H](CCCCN)NC(=O)[C@H](CO)NC(=O)[C@@H](NC(=O)[C@H](CC(=O)O)NC(=O)[C@H](CO)NC(=O)[C@@H](NC(=O)[C@](C)(Cc1ccccc1)NC(=O)[C@H](CO)NC(=O)CNC(=O)[C@H](Cc1c[nH]cn1)NC(=O)C(C)(C)NC(=O)[C@@H](N)Cc1c[nH]cn1)[C@@H](C)O)C(C)C)C(C)C)C(=O)N[C@@H](C)C(=O)N[C@@H](CC(N)=O)C(=O)N[C@H](C(=O)NCC(=O)NCC(N)=O)[C@@H](C)O` [Peptide 235] (H-H[Aib]HGS[αMeF]TSDVSK[αMeF]LDSRAAK([AEEA-AEEA-γGlu-γGlu-C20 diacid])DFVQ[Aib]IANTGG-NH2; N-terminus assumed), the “% Relative Potency Ratio” value in series [1] (Table 7) is 26.3. For the same compound, the EC50 amounted to 94.8 pM in series [1] and 1260 pM in series [2] (Table 7, peptides modified at position 20, geometric mean).

By half-life is commonly meant how long it takes for the measured level to halve. As to `CC(C)C[C@H](NC(=O)[C@H](Cc1c[nH]c2ccccc12)NC(=O)[C@H](CCC(N)=O)NC(=O)[C@@H](NC(=O)[C@H](Cc1ccccc1)NC(=O)[C@H](CC(=O)O)NC(=O)[C@H](CCCNC(=N)N)NC(=O)[C@H](C)NC(=O)[C@H](CCCNC(=N)N)NC(=O)[C@H](CCCCNC(=O)COCCOCCNC(=O)COCCOCCNC(=O)CC[C@H](NC(=O)CCCCCCCCCCCCCCCCCCC(=O)O)C(=O)O)NC(=O)[C@@H](NC(=O)[C@H](CC(=O)O)NC(=O)[C@H](CC(C)C)NC(=O)[C@](C)(Cc1ccccc1)NC(=O)[C@H](CCCCN)NC(=O)[C@H](CO)NC(=O)[C@@H](NC(=O)[C@H](CC(=O)O)NC(=O)[C@H](CO)NC(=O)[C@@H](NC(=O)[C@H](Cc1ccccc1)NC(=O)[C@@H](NC(=O)CNC(=O)[C@H](CCC(N)=O)NC(=O)C(C)(C)NC(=O)[C@@H](N)Cc1c[nH]cn1)[C@@H](C)O)[C@@H](C)O)C(C)C)[C@@H](C)O)C(C)C)C(=O)N[C@@H](CC(C)C)C(=O)N[C@@H](CCC(=O)O)C(=O)NC(C)(C)C(=O)NCC(=O)O` [Peptide 195, H-Aib-Q-G-T-F-T-S-D-V—S-K-αMePhe-L-D-T-K-R-A-R-D-F-V-Q-W-L-L-E-Aib-G-acid], the “% Relative Potency Ratio” value in series [1] (Table 6) turned out to be 2.2. Besides, the half-maximal effective concentration (EC50) was found to be 86 pM in series [1] and 94.6 pM in series [2] (Table 6, peptides modified at position 17, geometric mean). Further, the values for the half-life in series [3] and in series [4] were 49 h and 78 h, respectively.

Values taken from patent US20250353891A1 (MEDIMMUNE LIMITED, priority 2022, published 2025).
